# The full list was thinned out, with hits kept by preference.
# GIV Gai3 FP – inhibitors of GIV GBA-motif binding to rat Galpha-i3; P08753; Galpha-i3/FITC-GIV peptide fluorescence polarization, 90 min; hits give low values; scaled: aluminum fluoride 0%, vehicle 100%; percent of control (FP), % (test concentration not listed); 0.42% of 210,000 active; AID 1224905;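 active = replicate mean at 85% of control or lower, very high polarization wells dropped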;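 also: wells of about 15 µL received 100 nL stock; the first replicate is given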
# Active calls of the source: *.
[1] CCCCCN1/C(=C\C=C\c2n(CCCC)c3cc(Cl)c(Cl)cc3[n+]2CCCCC)N(CCCC)c2cc(Cl)c(Cl)cc21
  GIV Gai3 FP: -62.4*
[2] CCCCCCCCn1c2cc(Cl)cc(Cl)c2c2c(Cl)cc(Cl)cc21
  GIV Gai3 FP: 101.0
[3] CCCCCCC(CC[n+]1c(/C=C/C=C2N(CC)c3cc(Cl)c(Cl)cc3N2CC)n(CC)c2cc(Cl)c(Cl)cc21)S(=O)(=O)[O-] (stereo not given)
  GIV Gai3 FP: 108.8
[4] O=C(CCn1c(N2CCCC2)nc2ccsc2c1=O)N1CCN(c2ccc(F)cc2)CC1
  GIV Gai3 FP: 98.6
[5] CCCCC(=O)Nc1ccc(S(=O)(=O)N2CCC(c3nc4ccccc4s3)CC2)cc1
  GIV Gai3 FP: 102.8
[6] O=S(=O)(c1ccc2c(c1)-c1oncc1CO2)N1CCCCCC1
  GIV Gai3 FP: 97.5
[7] Cc1ccc(C2=NC3(CCN(C(=O)C4CCCC4)CC3)NC2=O)cc1C
  GIV Gai3 FP: 99.7
[8] COc1ccc(OC)c(S(=O)(=O)Nc2cnc(N3CCCC3)c(C(=O)O)c2)c1
  GIV Gai3 FP: 93.7
[9] Cc1cc(C)c(S(=O)(=O)Nc2cnc(N3CCNCC3)c(C(=O)N3CCCCC3C)c2)cc1C (stereo not given)
  GIV Gai3 FP: 98.0
[10] Cc1cc(C)c(S(=O)(=O)Nc2cnc(N3CCCC3)c(C(=O)O)c2)cc1C
  GIV Gai3 FP: 72.1*

[11] Nc1c(C(=O)N2CCOCC2)sc2nc3c(cc12)CCCC3
  GIV Gai3 FP: 105.0
[12] CC(=O)Nc1c(C(=O)N2CCOCC2)sc2nc3c(cc12)COC(C)(C)C3
  GIV Gai3 FP: 111.1
[13] COC(=O)c1sc2nc3ccccc3cc2c1N
  GIV Gai3 FP: 112.9
[14] Cc1ccc2nc3sc(C(=O)O)c(N)c3cc2c1
  GIV Gai3 FP: 105.1
[15] COc1ccc2nc3sc(C(=O)N4CCCC4)c(N)c3cc2c1
  GIV Gai3 FP: -62.1*
[16] Cc1cc(C)c2nc3sc(C(=O)N4CCOCC4)c(N)c3cc2c1
  GIV Gai3 FP: -49.5*
[17] CCc1onc(C)c1C1CCCN1C(=O)NCCCOC (stereo not given)
  GIV Gai3 FP: 100.3
[18] Cc1cccc(-n2c(=O)c3c(n4c(SCC(N)=O)nnc24)-c2ccccc2CC32CCCCC2)c1
  GIV Gai3 FP: 106.4
[19] Cc1cccn2c(=O)c(/C=C3\SC(=S)N(CCCCCC(=O)O)C3=O)c(N3CCCC3)nc12
  GIV Gai3 FP: 272.0
[20] COc1ccc(OC)c(C2NC(=S)NC(C)=C2C(=O)Nc2ccccc2C)c1 (stereo not given)
  GIV Gai3 FP: 120.9

[21] O=C(Nc1cccc(Cl)c1)c1nc2nc(-c3ccc(F)cc3)cc(C(F)(F)F)n2n1
  GIV Gai3 FP: 104.0
[22] Cc1ccc(O)c(C(=O)CSc2nnc(-c3ccccn3)c(-c3ccccn3)n2)c1
  GIV Gai3 FP: 102.8
[23] CCCCNc1cc(N2CCC(C)CC2)c2noc3c2c1C(=O)c1ccccc1-3
  GIV Gai3 FP: 2.5*
[24] CCNc1cc(N2CCN(c3ccccc3)CC2)c2noc3c2c1C(=O)c1ccccc1-3
  GIV Gai3 FP: 114.3
[25] CCNc1cc(N2CCN(C3CCCCC3)CC2)c2noc3c2c1C(=O)c1ccccc1-3
  GIV Gai3 FP: 164.0
[26] CCNc1cc(N2CCC(C)CC2)c2noc3c2c1C(=O)c1ccccc1-3
  GIV Gai3 FP: 139.4
[27] CCNc1cc(N2CCCC2)c2noc3c2c1C(=O)c1ccccc1-3
  GIV Gai3 FP: 201.1
[28] CN(C)CCNc1cc(N2CCOCC2)c2noc3c2c1C(=O)c1ccccc1-3
  GIV Gai3 FP: -68.2*
[29] Cc1ccc(Nc2cc(N3CCCCC3)c3noc4c3c2C(=O)c2ccccc2-4)cc1
  GIV Gai3 FP: 125.9
[30] CN(C)CCNc1cc(N2CCN(C(=O)c3ccco3)CC2)c2noc3c2c1C(=O)c1ccccc1-3
  GIV Gai3 FP: -31.4*

[31] CC1CCN(c2cc(N3CCOCC3)c3c4c(onc24)-c2ccccc2C3=O)CC1
  GIV Gai3 FP: 173.7
[32] S=c1[nH]nc(SCc2ccccc2)s1
  GIV Gai3 FP: 96.1
[33] Cn1c(=O)n(CC(=O)N2CCCC2)c(=O)c2cc(S(=O)(=O)Nc3ccc(Cl)cn3)ccc21
  GIV Gai3 FP: 99.0
[34] O=S(=O)(NCCCCCc1nc2ccccc2[nH]1)c1cccc2nsnc12
  GIV Gai3 FP: 101.8
[35] Cc1nn(CCCC(=O)NCCN2CCCCC2C)c(=O)c2c(-n3cccc3)n(-c3ccccc3)nc12 (stereo not given)
  GIV Gai3 FP: 126.9
[36] CCOC(=O)c1c(CN2CCN(c3ccccc3)CC2)n(C)c2cc(Br)c(OC)cc12
  GIV Gai3 FP: 97.3
[37] COc1ccc(NC(=O)N2CCN(c3nc4cc(Br)ccc4n4cccc34)CC2)cc1
  GIV Gai3 FP: 99.0
[38] CCOC(=O)c1cc2c(nc1NC(=S)NC(=O)c1ccccc1)CC(C)(C)OC2
  GIV Gai3 FP: 105.7
[39] O=C1c2ccccc2C(=O)c2c(NC3CCCCC3)ccc(Nc3ccc(Oc4ccccc4)cc3)c21
  GIV Gai3 FP: 103.6
[40] COc1ccccc1-c1noc(-c2ccc(NC3CCCCC3)c([N+](=O)[O-])c2)n1
  GIV Gai3 FP: 97.3

[41] O=C1C=C(C(F)(F)F)c2ccc(NC3CCCCC3)c3cccc1c23
  GIV Gai3 FP: -83.8*
[42] O=C1/C(=C/c2cccc3ccccc23)Nc2ccccc21
  GIV Gai3 FP: 56.6*
[43] COC(=O)C1=C(C)NC(=O)/C1=C\c1cccc2ccccc12
  GIV Gai3 FP: 112.8
[44] O=C1Nc2ccccc2/C1=C\c1c[nH]c2ccccc12
  GIV Gai3 FP: 109.0
[45] CN(CCC#N)c1ccc(/C=C2\CC/C(=C\c3ccc(N(C)CCC#N)cc3)C2=O)cc1
  GIV Gai3 FP: -40.8*
[46] CSc1ccc(/C=C2\CC/C(=C\c3ccc(SC)cc3)C2=O)cc1
  GIV Gai3 FP: 171.5
[47] COc1ccc(/C=C2\CCC/C(=C\c3ccc(N(C)C)cc3)C2=O)cc1
  GIV Gai3 FP: 106.0
[48] COc1ccc(N=Cc2ccc(N(C)CCC#N)cc2)cc1
  GIV Gai3 FP: 101.6
[49] CC(C)/C=C1\CC/C(=C\c2ccc(Cl)cc2)C1=O
  GIV Gai3 FP: 102.6
[50] CCN(CC)c1ccc(/C=C2\CC/C(=C\C(C)C)C2=O)cc1
  GIV Gai3 FP: -87.6*

[51] O=C(NN=C1CSc2sc(=S)sc2SC1)c1ccncc1
  GIV Gai3 FP: 111.5
[52] O=c1ccc(-c2ccccc2)nn1CCc1nc(-c2cccc(Cl)c2)no1
  GIV Gai3 FP: 101.9
[53] CC(C)CN1C(=O)/C(=C/C=C/c2ccccc2)SC1=S
  GIV Gai3 FP: 104.2
[54] CCN(CC)c1ccc(/C=C2/C(C)=C(C#N)c3nc(N)c(C#N)c(C)c32)cc1
  GIV Gai3 FP: 105.4
[55] CC(c1ccccc1)N1C(=O)/C(=C/c2c(N3CCN(C)CC3)nc3ccccn3c2=O)SC1=S (stereo not given)
  GIV Gai3 FP: 224.5
[56] O=C(O)CCCN1C(=O)/C(=C/c2c(N3CCN(Cc4ccccc4)CC3)nc3ccccn3c2=O)SC1=S
  GIV Gai3 FP: 145.6
[57] CC(C)CN1C(=O)/C(=C/c2c(N3CCN(CCO)CC3)nc3ccccn3c2=O)SC1=S
  GIV Gai3 FP: 41.4*
[58] O=C(CN1CCn2nc(-c3ccccc3)cc2C1=O)NCc1cccnc1
  GIV Gai3 FP: 98.4
[59] O=C(NCC1CCCO1)c1ccc(N2CCOCC2)nc1 (stereo not given)
  GIV Gai3 FP: 94.7
[60] Cc1[nH]c(C)c(S(=O)(=O)N2CCC(C(=O)Nc3cc(F)ccc3F)CC2)c1C(=O)N1CCCC1
  GIV Gai3 FP: 104.8

[61] O=S(=O)(NN=Cc1cn(-c2ccccc2)nc1-c1ccco1)c1ccc(Cl)cc1
  GIV Gai3 FP: 106.5
[62] CC(C)NC(=O)CSc1nnc(Cc2ccccc2)n1Cc1ccco1
  GIV Gai3 FP: 100.8
[63] CN(C)c1ccc(/C=C2\C(=O)NC(=O)N(C3CCCC3)C2=O)o1
  GIV Gai3 FP: -41.6*
[64] O=C1NC(=O)N(C2CCCCC2)C(=O)/C1=C\c1ccc(-c2ccc(C(=O)O)cc2)o1
  GIV Gai3 FP: 111.9
[65] O=C1NC(=O)N(C2CCCCC2)C(=O)/C1=C\C=C\c1ccco1
  GIV Gai3 FP: 163.1
[66] Cc1sc(-c2noc(C(=O)N3CCCC3)n2)cc1S(=O)(=O)NCCC1=CCCCC1
  GIV Gai3 FP: 101.0
[67] COc1ccc(N=C(N)/C(C#N)=C/c2[nH]c3ccccc3c2O)cc1
  GIV Gai3 FP: 259.0
[68] N#CC(C#N)=Cc1cn(CC(=O)N2CCOCC2)c2ccccc12
  GIV Gai3 FP: 101.5
[69] N#C/C(=C\c1[nH]c2ccccc2c1O)C(=N)N1CCOCC1
  GIV Gai3 FP: -18.2*
[70] Cc1nc2cccnc2n1CCN1CCN(C(=O)NC2CCCCC2)CC1
  GIV Gai3 FP: 100.1

# Reprinted from the part before: six entries, followed by the next part.
[65] O=C1NC(=O)N(C2CCCCC2)C(=O)/C1=C\C=C\c1ccco1
  GIV Gai3 FP: 163.1
[66] Cc1sc(-c2noc(C(=O)N3CCCC3)n2)cc1S(=O)(=O)NCCC1=CCCCC1
  GIV Gai3 FP: 101.0
[67] COc1ccc(N=C(N)/C(C#N)=C/c2[nH]c3ccccc3c2O)cc1
  GIV Gai3 FP: 259.0
[68] N#CC(C#N)=Cc1cn(CC(=O)N2CCOCC2)c2ccccc12
  GIV Gai3 FP: 101.5
[69] N#C/C(=C\c1[nH]c2ccccc2c1O)C(=N)N1CCOCC1
  GIV Gai3 FP: -18.2*
[70] Cc1nc2cccnc2n1CCN1CCN(C(=O)NC2CCCCC2)CC1
  GIV Gai3 FP: 100.1
[71] O=C(Cn1cnc2nc(N3CCC(C(=O)NC4CC4)CC3)sc2c1=O)NCC1CCCO1 (stereo not given)
  GIV Gai3 FP: 99.8
[72] C=CCn1c(=O)/c(=C2/Sc3ccccc3N2CC)s/c1=C1\SC(=S)N(C)C1=O
  GIV Gai3 FP: 330.8
[73] COc1ccc2c(c1)N(C)/C(=C1/SC(=S)N(Cc3ccccc3)C1=O)S2
  GIV Gai3 FP: 121.0
[74] C=CCn1c(=O)/c(=C2/Sc3ccc(OC)cc3N2CC)s/c1=C1\SC(=S)N(CCCC)C1=O
  GIV Gai3 FP: 42.3*
[75] CC(=O)N(C(C)=O)C1=C(C#N)C2(CCCC2)Cc2ccccc21
  GIV Gai3 FP: 107.0
